# Yeast mating assay B: variants of the scFv Ab-14

The target is the same throughout: PDVDLGDISGINAS, from the HR2 region of SARS-CoV-2 spike.

Parent scFv Ab-14: VH joined to VL by a (GGGGS)3 linker. Changes lie in the heavy chain CDRs alone.
VH: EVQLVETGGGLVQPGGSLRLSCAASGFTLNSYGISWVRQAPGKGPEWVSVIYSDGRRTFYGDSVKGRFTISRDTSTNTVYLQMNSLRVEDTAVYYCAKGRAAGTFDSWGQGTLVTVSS
VL: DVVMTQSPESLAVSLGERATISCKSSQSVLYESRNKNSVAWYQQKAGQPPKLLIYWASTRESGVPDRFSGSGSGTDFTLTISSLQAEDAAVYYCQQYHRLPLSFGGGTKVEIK

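Phage display of a naive human antibody library on the peptide gave the parent. These sequences belong to a second round, designed from the earlier measurements on random variants of the parent. Group labels follow the data file (Ctrl: baseline library sampled from a position-specific scoring matrix, with some repeated check sequences; Rand: our label for a block that the file lists under HC and that is probably the random mutants of the ten best first-round binders; GP: Gaussian process model; GPLM: also part of the Gaussian process libraries; HC: hill climbing; Gen: genetic algorithm; Gibbs: Gibbs sampling; a sequence that several methods proposed may carry one label only). Affinity was read by AlphaSeq, a pooled yeast mating assay with surface-displayed partners. Pairs that bind mate more often; barcode pairs of the diploids are counted by sequencing. Scores were corrected for input abundance and mapped to Kd with protein pairs of known affinity run in the same pool. Each pool was mated in six replicate cultures.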

Variants are written as CDR1, CDR2 and CDR3 of the heavy chain (limits as in the source). Parent: GFTLNSYGIS, VIYSDGRRTFYGDSVK, GRAAGTFDS.
This list holds designs with at most six substitutions.
Values are apparent Kd, the geometric mean of the replicates that gave a signal; lower means stronger binding.
Where no diploid with the target was found in any replicate, the entry reads "nd": below detection, most likely a poor binder, though not proof of it.

| CDR-H1 | CDR-H2 | CDR-H3 | group | apparent Kd | detected |
|---|---|---|---|---|---|
| GFSLNSYGIS | VIYSDGRRTFYGDNVK | GQTAGTFDA | GP_Gibbs | 2.1 nM | 6/6 |
| GFTLNSYGIS | VIYSDGRRTFYGDSVK | GGEAGTFDT | GPLM_Gen | 1.5 nM | 6/6 |
| GFTLNSYGIS | VIYSDGRRTFYGDSVK | GRVAGTFDI | GPLM_Gen | 24 nM | 6/6 |
| GFVLNSYGIS | VIYSDGRRTFYGDQVK | GRTAGTFDS | GP_Gibbs | 53 nM | 2/6 |
| GFDLNSYGIS | VIYSDGRRTFYGDSVK | GRAAWTFDD | GP_HC | 320 nM | 1/6 |
| GFTLNEYGIS | VIYSDGRRTFYSDSVK | GRTAGCFDS | Ctrl | 19 nM | 6/6 |
| HFDLNSYGIS | VIYSDGRRTFYIDSVK | GRTAGTFDS | GP_Gen | 140 nM | 3/6 |
| YFDLNSYGIS | VIYSDGRRTFYGDSVK | GKTAGTFDS | GP_Gen | 14 nM | 5/6 |
| GFTLNDYGIS | VIYSDGRRTFYGGSVK | GNAGGTFDA | Ctrl | 72 nM | 5/6 |
| GFTLNQYGIS | VIYSDGKRTFYSDSVK | GRTAGTFDS | GPLM_HC | 460 pM | 6/6 |
| GFTLNSYGIS | VIYSDGRRTFYGQSVK | GQSAGTFDS | Ctrl | 64 nM | 5/6 |
| GFQLNEYGIS | VIYSDGRRTFYGDSVK | GRTAGTFDE | GP_Gen | 2.6 nM | 6/6 |
| GFQLNEYGIS | VIYSDGRRTFYGDSVK | GRSAGTFDT | GP_Gibbs | 2.5 nM | 6/6 |
| PFDLNSYGIS | VIYSDGRRTFYIDSVK | GRTAGTFDS | GP_Gen | 24 nM | 6/6 |
| GFTINEYGIS | VIYSDGRRTFYGDSVK | GKCAGTFDS | Ctrl | nd | 0/6 |
| GFELNSYGIS | VIYSDGRRTFYADRVK | GRTAGTFDS | GP_Gen | nd | 0/6 |
| GFELNSYGIS | VIYSDGRRTFYSDSVK | GDAAGTFDS | Ctrl+GPLM_Gibbs | 4.0 nM | 12/12 |
| GFTLNEYGIS | VIYSDGRRTFYGDSVK | GREAGTFNS | GP_HC | 3.1 nM | 6/6 |
| GFTLESYGIS | VIYSDGRRTFYGDSVR | GRAAGTFDV | Ctrl | 170 nM | 3/6 |
| GFNLNSYGIS | VIYSDGRRTFYGDDVK | GQAAGTFDS | GPLM_Gibbs | 52 nM | 6/6 |
| GFSLNEYGIS | VIYSDGRRTFYHDSVK | GRHAGTFDS | GP_Gen | 970 pM | 6/6 |
| GFDLNSYGIS | VIYSDGRRTFYIDSVK | GRAAGTFDK | GP_HC | 150 nM | 2/6 |
| GFTLNEYGIS | VIYSDGRRTFYIDSVK | GNAAGTFDS | GP_HC | 1.3 nM | 6/6 |
| GFQLNEYGIS | VIYSDGRRTFYQDSVK | GRTAGTFDS | GP_Gen | 880 pM | 6/6 |
| GFHLNSYGIS | VIYSDGRRTFYSDSVK | GQAGGTFDS | GP_HC | nd | 0/6 |
| GFTLNSYGIS | VIYADGRRTFYGDSVK | GKAAGTFKK | GP_HC | nd | 0/6 |
| GFTLNSYGIS | VIYSDGRRTFYGDDVK | GQTAGTFDS | GP_Gibbs | 7.9 nM | 6/6 |
| GFELNSYGIS | VIYSDGRRTFYGDSVK | GKQAGTFDS | GPLM_Gibbs | 3.8 nM | 6/6 |
| GFTLNSYGIS | VIYSDGRRTAYGDSVK | GKAAGTFVS | Ctrl | nd | 0/6 |
| GFVLNQYGIS | VIYSDGRRTFYGDSVK | HRDAGTFDS | Ctrl | nd | 0/6 |
| GFSLNSYGIS | VIYSDGRRTFYADSVK | GREAGTFDN | GPLM_Gibbs | 2.4 nM | 6/6 |
| GFTLNDYGIS | VIYSDGRRTFYSDSVK | GRAAGMFDS | GP_HC | 160 nM | 3/6 |
| GFSLNSYGIS | VIYADGRRTFYGDQVK | GQAAGTFDS | GPLM_Gen | 340 pM | 6/6 |
| GFELNSYGIS | VIYSDGRRTFYIDSVK | GRMAGTFDT | GP_Gibbs | 17 nM | 6/6 |
| GFSLNKYGIS | VIYSDGRRTFYGDDVK | GRAAGTFDS | Ctrl | 23 nM | 6/6 |
| GFALNEYGIS | VIYSDGRRTMYGDSVK | GRTAGTFDS | GP_Gibbs | 400 pM | 6/6 |
| GFQLNEYGIS | VIYSDGRRTMYGDSVK | GRTAGTFDS | GP_Gen | 1.7 nM | 6/6 |
| GFNLNSYGIS | VIYADGRRTWYGDSVK | GRAAGTFKS | Ctrl | 150 nM | 5/6 |
| GFTLEKYGIS | VIYSDGRRTFYGDSVK | GRTAGTFDS | GP_HC | 3.2 nM | 6/6 |
| GFDLNTYGIS | VIYSDGRRTFYADSVK | GNAAGTFDS | GPLM_Gibbs | 1.3 nM | 6/6 |
| GFSLNSYGIS | VIYSDGRRTAYSDSVK | GRAAGTFDS | GPLM_Gen | 470 pM | 6/6 |
| GFSLNSYGIS | VIYSDGRRTFYGDSVK | GYEAGTFDS | Ctrl | 8.7 nM | 5/6 |
| GFQLNSYGIS | VIYSDGRRTAYGDQVK | GRAAGTFDS | GP_Gibbs | nd | 0/6 |
| GFDLNSYGIS | VIYSDGRRTFYGDSVK | GRTAGTFWS | GPLM_Gen | nd | 0/6 |
| GFWLNEYGIS | VIYSDGRRTFYHDSVK | GRAAVTFDL | GP_HC | 210 nM | 1/6 |
| GFDLNSYGIS | VIYSDGRRTFYKDAVK | GRTAGTFDS | GP_Gibbs | 1.3 nM | 6/6 |
| GFTLNEYGIP | VIYSDGRRTFYGDSVK | GRAAVTFDQ | Rand | nd | 0/6 |
| GFDLNSYGIS | VIYSDGRRTFYGDSVK | GKAAGTFDR | GPLM_Gen | 21 nM | 5/6 |
| GFSLNSYGIS | VIYSDGRRTAYGDHVK | GRAAGTFDS | GP_Gen | 1.9 nM | 6/6 |
| GFELNSYGIS | VIYSDGRRTFYGDSVK | GKAAGTFDL | GP_Gen | nd | 0/6 |
| GFQLNSYGIS | VIYSDGKRTFYGDSVK | GQAAGTFDL | GP_Gibbs | 57 nM | 6/6 |
| GFSLNSYGIS | VIYSDGRRTFYGDDVK | GNAAGTFDS | GP_Gen | 1.7 nM | 6/6 |
| KFSLNDYGIS | VIYSDGRRTFYGDSVK | GRQAGTFDS | GPLM_Gen | 12 nM | 6/6 |
| GVTLNDYGIS | VIYSDGRMTQYIDSVK | GRAAGTFDS | Rand | nd | 0/6 |
| GFSLNSYGIS | VIYSDGRRTFYGDSVK | GRAAGTFDV | GPLM_Gen | 4.4 nM | 6/6 |
| GFELNSYGIS | VIYSDGRRTFYADHVK | GKTAGTFDS | GP_Gibbs | 24 nM | 5/6 |
| GFQLNSYGIS | VIYADGRRTFYGDSVK | GQAAGTFDS | GPLM_Gen | 3.8 nM | 6/6 |
| GFTLNHYGIS | VIYSDGRRTFYGDSVK | GREAGTFDS | Ctrl | 4.4 nM | 6/6 |
| GFTLNEYGIS | VIYSDGRRTAYRDSVK | IRAAGTFDS | Ctrl | nd | 0/6 |
| GFKLNSYGIS | VIYSDGRRTFYHDSVK | GQTAGTFDS | GP_HC | 3.8 nM | 6/6 |
| GFSLNSYGIS | VIYSDGRRTFYADNVK | GMTAGTFDS | GP_Gibbs | 610 pM | 6/6 |
| GFTLNEYGIS | VIYSDGRRTFYGDSVK | GRYAGTFIS | GPLM_HC | nd | 0/6 |
| GFTLNSYGIS | VIYADGSRTHYGDSVK | GRAAGTFDS | Ctrl | 5.2 nM | 6/6 |
| GFTLNSYGIS | VIYSDGKRTFYIDRVK | GQAAGTFDT | GP_Gibbs | nd | 0/6 |
| GFNLNSYGIS | VIYSDGRRTFYADRVK | GKAAGTFDS | GP_Gibbs | 20 nM | 6/6 |
| GFTLNEYGIS | VIYSDGRRTFYGDDVK | GRAAVTFDQ | GPLM_HC | 53 nM | 1/6 |
| GFWLNDYGIS | VIYSDGRRTFYGDSVR | GRAAGTFDQ | Ctrl | 8.6 nM | 6/6 |
| GFTLESYGIS | VIYSDGKRTFYIDSVK | GRAAGTFDS | GP_Gibbs | 200 nM | 4/6 |

Excerpt, the final 5 entries:

| CDR-H1 | CDR-H2 | CDR-H3 | group | apparent Kd | detected |
|---|---|---|---|---|---|
| GFTLNSYGIS | VIYSDGKRTFYIDRVK | GQAAGTFDT | GP_Gibbs | nd | 0/6 |
| GFNLNSYGIS | VIYSDGRRTFYADRVK | GKAAGTFDS | GP_Gibbs | 20 nM | 6/6 |
| GFTLNEYGIS | VIYSDGRRTFYGDDVK | GRAAVTFDQ | GPLM_HC | 53 nM | 1/6 |
| GFWLNDYGIS | VIYSDGRRTFYGDSVR | GRAAGTFDQ | Ctrl | 8.6 nM | 6/6 |
| GFTLESYGIS | VIYSDGKRTFYIDSVK | GRAAGTFDS | GP_Gibbs | 200 nM | 4/6 |

Of ten entries with the parent sequence, four were seen in most replicates (averages 2.2 nM to 240 nM), three in one and three in none, so single entries are noisy.
The range of this assay differs from that of the first round, and the authors advise against merging the two.
A sequence that the file lists under several names has all its replicates pooled.
The authors averaged sequences with at least three values out of six and counted those with two or fewer as poor binders.
Nonspecific signal, from three strains lacking the peptide, appeared in 1% of pairings of all heavy chain designs, centred on 120 nM (5% of these signals below 7.0 nM); values are not corrected for it.

Source: Li et al. 2023 (doi:10.1038/s41467-023-39022-2), MIT Lincoln Laboratory and A-Alpha Bio; data file from the FLAb repository.